For one assay, the target named is Carbonic anhydrase 2 (Homo sapiens, UniProt P00918). Description: Inhibitory constant against human isozymes carbonic anhydrase II for the CO2 hydration reaction at 20 C.
For another assay, the target named is Carbonic anhydrase 9 (Homo sapiens, UniProt Q16790). Nature of the assay: Inhibitory constant against human isozymes carbonic anhydrase IX for the CO2 hydration reaction at 20 C.
The target of assay [1] is Carbonic anhydrase 5A, mitochondrial (Homo sapiens, UniProt P35218). Nature of the assay: Inhibitory constant against human isozymes carbonic anhydrase V for the CO2 hydration reaction at 20 C.
The next assay has as its target Carbonic anhydrase 4 (Homo sapiens, UniProt P22748). Nature of the assay: Inhibitory constant against human isozymes carbonic anhydrase IV for the CO2 hydration reaction at 20 degree C.
For the next assay, the target named is Carbonic anhydrase 1 (Homo sapiens, UniProt P00915).

Amino acid sequences for entries named in this document (tags omitted).
UniProt P35218, whole entry, looked up: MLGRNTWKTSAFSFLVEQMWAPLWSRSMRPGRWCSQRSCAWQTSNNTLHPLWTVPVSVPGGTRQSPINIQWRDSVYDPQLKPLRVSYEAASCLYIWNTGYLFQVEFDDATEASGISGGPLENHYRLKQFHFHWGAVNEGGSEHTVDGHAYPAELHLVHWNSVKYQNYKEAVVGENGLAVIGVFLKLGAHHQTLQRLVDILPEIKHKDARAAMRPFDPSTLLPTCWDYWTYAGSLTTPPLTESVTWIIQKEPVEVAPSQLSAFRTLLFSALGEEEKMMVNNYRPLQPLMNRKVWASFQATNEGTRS
UniProt P22748, whole entry, looked up: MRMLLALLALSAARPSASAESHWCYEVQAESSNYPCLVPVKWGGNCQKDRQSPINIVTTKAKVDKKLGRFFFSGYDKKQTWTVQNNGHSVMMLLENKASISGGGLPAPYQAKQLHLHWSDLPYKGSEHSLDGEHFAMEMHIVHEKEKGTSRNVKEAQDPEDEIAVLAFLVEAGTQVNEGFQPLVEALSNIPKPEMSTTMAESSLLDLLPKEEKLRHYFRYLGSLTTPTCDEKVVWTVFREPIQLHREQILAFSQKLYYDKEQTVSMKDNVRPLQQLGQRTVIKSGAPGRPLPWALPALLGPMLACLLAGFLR
UniProt P00915, whole entry, looked up: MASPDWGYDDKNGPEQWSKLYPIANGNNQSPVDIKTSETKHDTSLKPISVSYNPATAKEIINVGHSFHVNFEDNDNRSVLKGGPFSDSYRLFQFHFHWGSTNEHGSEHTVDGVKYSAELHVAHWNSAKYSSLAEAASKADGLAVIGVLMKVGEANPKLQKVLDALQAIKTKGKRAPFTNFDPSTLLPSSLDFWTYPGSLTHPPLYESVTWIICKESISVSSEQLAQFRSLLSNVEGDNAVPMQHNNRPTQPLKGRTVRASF

What is called Ki is a measure of affinity in units of concentration, obtained from inhibition or displacement.

Take `N#[C][AuH][C]#N`: the inhibition constant (Ki) was found to be 580 µM on Carbonic anhydrase 2, 31300 µM at Carbonic anhydrase 9, 1910 µM in assay [1] and 5360 µM on Carbonic anhydrase 4.
For the molecule `N#[C][CuH][C]#N`, the Ki on Carbonic anhydrase 2 worked out at 560 µM; at Carbonic anhydrase 9, 4770 µM; in assay [1], 790 µM.
For the molecule `N#[C][AgH][C]#N`, the Ki on Carbonic anhydrase 2 worked out at 760 µM; on Carbonic anhydrase 9, 330 µM; in assay [1], 1750 µM; at Carbonic anhydrase 4, 97000 µM; at Carbonic anhydrase 1, 500 µM.

These data come from BindingDB's records for 15780631 (Universit&#224, 2005).
